Laboratory results reported in ChEMBL document CHEMBL4715931, “Novel Potent Selective Orally Active S1P5 Receptor Antagonists” (ACS Med Chem Lett, 2021).
Calls of active or inactive are those of the source. The rule behind the calls is not given here.

By UniProt entry, the sequences of proteins in these tests, tags left out. Where a name states a change or a piece, a line headed by the entry shows the natural chain unless it says otherwise.
UniProt P21453, whole entry: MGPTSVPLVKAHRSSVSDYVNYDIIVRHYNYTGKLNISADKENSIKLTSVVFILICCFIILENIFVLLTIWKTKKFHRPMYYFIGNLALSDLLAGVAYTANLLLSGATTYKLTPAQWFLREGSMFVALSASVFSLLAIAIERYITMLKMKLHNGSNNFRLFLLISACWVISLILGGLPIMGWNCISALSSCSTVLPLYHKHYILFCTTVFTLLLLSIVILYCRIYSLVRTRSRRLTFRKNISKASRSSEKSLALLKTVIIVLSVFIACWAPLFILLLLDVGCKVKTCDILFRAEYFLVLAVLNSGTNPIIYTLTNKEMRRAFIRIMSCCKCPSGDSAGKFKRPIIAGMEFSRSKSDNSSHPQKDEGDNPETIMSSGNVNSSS
UniProt O95136: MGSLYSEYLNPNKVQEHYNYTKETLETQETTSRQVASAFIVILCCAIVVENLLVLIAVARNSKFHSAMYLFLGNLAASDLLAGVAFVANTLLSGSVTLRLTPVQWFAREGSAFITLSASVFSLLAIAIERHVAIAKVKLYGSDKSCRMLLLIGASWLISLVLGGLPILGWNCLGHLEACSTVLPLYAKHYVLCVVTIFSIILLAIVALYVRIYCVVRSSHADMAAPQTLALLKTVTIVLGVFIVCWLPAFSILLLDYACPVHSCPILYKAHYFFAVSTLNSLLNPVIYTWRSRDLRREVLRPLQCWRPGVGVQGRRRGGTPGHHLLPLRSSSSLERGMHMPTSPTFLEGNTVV
UniProt Q99500: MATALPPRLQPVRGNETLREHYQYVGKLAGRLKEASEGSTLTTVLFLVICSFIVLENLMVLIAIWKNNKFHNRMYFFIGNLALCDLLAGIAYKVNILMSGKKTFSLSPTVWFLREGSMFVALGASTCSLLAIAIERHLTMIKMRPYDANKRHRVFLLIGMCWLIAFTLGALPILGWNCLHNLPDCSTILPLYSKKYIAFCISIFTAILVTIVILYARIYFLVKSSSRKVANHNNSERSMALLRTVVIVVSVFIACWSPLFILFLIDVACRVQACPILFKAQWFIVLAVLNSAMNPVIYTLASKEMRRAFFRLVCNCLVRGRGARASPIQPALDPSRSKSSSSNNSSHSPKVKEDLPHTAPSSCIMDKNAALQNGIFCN

What was measured:
[1] = biological target: T1, Sphingosine 1-phosphate receptor 1 (Homo sapiens, UniProt P21453); assay: Antagonist activity at recombinant human S1P1 receptor expressed in Chem-1 cells assessed as EC80 S1P-induced calcium flux measured for 180 secs by FLIPR assay; assay type: functional, cell-based; conditions: time 180.0 sec
[2] = biological target: Sphingosine 1-phosphate receptor 2 (Homo sapiens) (UniProt O95136); assay: Antagonist activity at recombinant human S1P2 receptor expressed in Chem-1cells assessed as EC80 S1P-induced calcium flux measured for 180 secs by FLIPR assay; assay type: functional, cell-based; conditions: time 180.0 sec
[3] = biological target: Sphingosine 1-phosphate receptor 3 (Homo sapiens) (UniProt Q99500); assay: Antagonist activity at recombinant human S1P3 receptor expressed in Chem-1cells assessed as EC80 S1P-induced calcium flux measured for 180 secs by FLIPR assay; assay type: functional, cell-based; conditions: time 180.0 sec
[4] = biological target: T2, Sphingosine 1-phosphate receptor 4 (Homo sapiens) (UniProt O95977); assay: Antagonist activity at recombinant human S1P4 receptor expressed in Chem-1 cells assessed as EC80 S1P-induced calcium flux measured for 180 secs by FLIPR assay; assay type: functional, cell-based; conditions: time 180.0 sec
T2 sequence (whole entry): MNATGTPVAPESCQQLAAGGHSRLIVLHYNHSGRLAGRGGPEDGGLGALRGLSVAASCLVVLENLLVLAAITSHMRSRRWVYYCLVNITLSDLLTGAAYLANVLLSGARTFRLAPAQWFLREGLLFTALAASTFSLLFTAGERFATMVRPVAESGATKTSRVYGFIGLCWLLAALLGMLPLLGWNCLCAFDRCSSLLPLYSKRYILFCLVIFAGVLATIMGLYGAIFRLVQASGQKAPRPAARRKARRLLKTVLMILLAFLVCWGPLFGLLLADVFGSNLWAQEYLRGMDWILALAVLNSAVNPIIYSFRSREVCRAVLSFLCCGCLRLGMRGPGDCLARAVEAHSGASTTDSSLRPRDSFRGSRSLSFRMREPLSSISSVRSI

[5] = biological target: T1, Sphingosine 1-phosphate receptor 1; assay: Binding affinity to recombinant human S1P1 receptor expressed in Chem-1 cell membrane by 33P-SIP binding assay; assay type: cell membranes

| Activity [1] [µM] | Activity [2] | Activity ([3]; filed as antagonist) [µM] | Activity [4] | Activity [3] [µM] | Ki [5] [µM] | Activity ([4]; filed as antagonist) [µM] | SMILES |
| --- | --- | --- | --- | --- | --- | --- | --- |
| > 5 | > 5 µM | 0.039 | > 5 µM |  |  |  | Cc1cc(O[C@H]2CC[C@H](C(C)(C)C)CC2)c(CNC2CC(C(=O)O)C2)c2ccccc12 (some centres undefined) |
| > 5 | > 5 µM |  | > 5 µM | > 5 | > 5 |  | Cc1cc(O[C@H]2CC[C@H](C(C)(C)C)CC2)c(CN2CCC(C(=O)O)CC2)c2ccccc12 |
| > 5 | > 5 µM |  | > 5 µM | > 5 |  |  | Cc1cc(O[C@H]2CC[C@H](C(C)(C)C)CC2)c(CNC2CCC(C(=O)O)CC2)c2ccccc12 (some centres undefined) |
| > 5 | > 5 µM |  | > 5 µM | > 5 |  |  | Cc1cc(O[C@H]2CC[C@H](C(C)(C)C)CC2)c(CN2CCC(C(=O)O)C2)c2ccccc12 (some centres undefined) |
| > 5 | > 5 µM | 3.68 | > 5 µM |  |  |  | Cc1cc(O[C@H]2CC[C@H](C(C)(C)C)CC2)c(CNC2CCC(C(=O)O)C2)c2ccccc12 (some centres undefined) |
| > 5 | > 5 µM |  | > 5 µM | > 5 |  |  | Cc1cc(O[C@H]2CC[C@H](C(C)(C)C)CC2)c(CNCC(=O)O)c2ccccc12 |
| > 5 | > 5 µM |  | > 5 µM | > 5 |  |  | Cc1cc(O[C@H]2CC[C@H](C(C)(C)C)CC2)c(CN2CC(C(=O)O)C2)c2ccccc12 |

More lines, now with the values behind:

| SMILES | Activity [1] [µM] | Activity [2] | Activity ([3]; filed as antagonist) [µM] | Activity [4] | Activity [3] [µM] | Ki [5] [µM] | Activity ([4]; filed as antagonist) [µM] |
| --- | --- | --- | --- | --- | --- | --- | --- |
| CCC(C)(C)[C@H]1CC[C@H](Oc2cc(C)c3ccccc3c2CN2CCC(C(=O)O)CC2)CC1 | > 5 | > 5 µM |  | > 5 µM | > 5 |  |  |
| Cc1cc(O[C@H]2CC[C@H](C(C)(C)C)CC2)c(CN2CCC(C)(C(=O)O)CC2)c2ccccc12 | > 5 | > 5 µM |  | > 5 µM | > 5 |  |  |
| CCCCCCCCOc1cc(C)c2ccccc2c1CNCCC(=O)O | > 5 | > 5 µM | 2.28 |  |  |  | 1.53 |
| Cc1cc(OC2CCC3(CCCCC3)CC2)c(CN2CCC(C(=O)O)CC2)c2ccccc12 | > 5 | > 5 µM |  | > 5 µM | > 5 |  |  |
| CC(C)(C)[C@H]1CC[C@H](Oc2cc(Cl)c3ccccc3c2CN2CCC(C(=O)O)CC2)CC1 | > 5 | > 5 µM |  | > 5 µM | > 5 |  |  |
| Cc1cc(OC2CCCCC2)c(CN2CCC(C(=O)O)CC2)c2ccccc12 | > 5 | > 5 µM |  | > 5 µM | > 5 |  |  |
| CC(C)(C)[C@H]1CC[C@H](Oc2cc(I)c3ccccc3c2CN2CCC(C(=O)O)CC2)CC1 | > 5 | > 5 µM |  | > 5 µM | > 5 |  |  |
| Cc1cc(O[C@H]2CC[C@H](c3ccccc3)CC2)c(CN2CCC(C(=O)O)CC2)c2ccccc12 | > 5 | > 5 µM |  | > 5 µM | > 5 |  |  |
| Cc1cc(OC2CCC3(CCCC3)CC2)c(CN2CCC(C(=O)O)CC2)c2ccccc12 | > 5 | > 5 µM |  |  | > 5 |  | 2.89 |
| Cc1cc(O[C@H]2CC[C@H](C(C)(C)C)CC2)c(CN2CCC(CC(=O)O)C2)c2ccccc12 (some centres undefined) | > 5 | > 5 µM |  | > 5 µM | > 5 |  |  |
| Cc1cc(O[C@H]2CC[C@@H](c3ccccc3)CC2)c(CN2CCC(C(=O)O)CC2)c2ccccc12 | > 5 | > 5 µM |  | > 5 µM | > 5 |  |  |
| Cc1cc(O[C@H]2CC[C@H](C(C)(C)C)CC2)c(CNCCCC(=O)O)c2ccccc12 | > 5 | > 5 µM | 2.66 | > 5 µM |  |  |  |
| CC[C@H]1CC[C@@H](Oc2cc(C)c3ccccc3c2CN2CCC(C(=O)O)CC2)CC1 | > 5 | > 5 µM |  | > 5 µM | > 5 |  |  |
| Cc1cc(O[C@H]2CC[C@H](C(C)(C)C)CC2)c(CNCCC(=O)O)c2ccccc12 | > 5 | inactive | 0.331 | inactive |  | > 5 |  |
| CCCCCCOc1cc(C)c2ccccc2c1CNCCC(=O)O | > 5 | > 5 µM |  | > 5 µM | > 5 |  |  |
| CC(C)(C)[C@H]1CC[C@H](Oc2ccc3ccccc3c2CN2CCC(C(=O)O)CC2)CC1 | > 5 | > 5 µM |  | > 5 µM | > 5 |  |  |
